The values below are quoted from earlier work in patent publication US20040248869A1, “Method for finding novel active ingredients having androgen-type properties” (priority 2001, published 2004).

In the data set the test system is human skin cells. Conditions: differentiation of human skin cells; cited from earlier work.

For the compound `C[C@]12CC[C@H]3[C@@H](CCC4=CC(=O)CC[C@@]43C)[C@@H]1CC[C@@H]2O` [T, testosterone], the “volume of the epidermis tissue, cell size, number of keratin filaments” value is listed as “does not influence”.
